The experiment has as its target T1, human LHCG receptor (Homo sapiens, UniProt P22888).
T1 construct: expressed in transfected cells
The experiment can be described thus: intracellular cAMP accumulation, agonism at LHCGR stably expressed in HEK EM 293 cells. It counts as cell-based. Here is the method: With reference to Table 1, exemplary disclosed compounds were evaluated against human TSH receptor and human LHCG receptor that were stably expressed in HEK 293 EM cells as previously described by Libert et al. (Biochem. Biophys. Res. Commun. 1989, 165, 1250-1255); and by Schulz et al. (Mol. Endocrinol. 1999, 13, 181-190). Cell surface expression of TSH receptor and LHCG receptor were determined via FACS analysis (Kleinau, G.; Jäschke, H.; Neumann, S.; Lättig, S.; Paschke, R.; Krause, G. J. Biol. Chem. 2004, 279, 51590-51600). Agonism of compounds 3-20 were determined via measurement of intracellular cyclic AMP accumulation. […]
Cells were cultured for 48 h in 24-well plates before incubation for 1 h in serum-free DMEM containing 1 mM 3-isobutyl-1-methylxanthine (IBMX) (SIGMA) and bovine TSH (1.8 μM) (SIGMA) or human LH (1000 ng/ml) (Dr. A. Parlow, NIDDK National Hormone and Pituitary Program) or compounds 3-19 (0-100 μM) in a humidified 5% CO2 incubator. […] The cAMP content of the cell lysate was determined using the manufacturer's protocol. The efficacy of receptor activation by small molecule modulators is expressed as % of maximum response of LHCG receptor or TSH receptor to LH or TSH, respectively. […]
Transiently transfected cells were cultured for 48 hours before the cAMP assay. […] Data were analyzed using GraphPad Prism 4 for Windows. […]

Protein sequences, listed by entry. Tags and fused reporters are not part of them. Residues count along the entry.
UniProt P22888, 27-699: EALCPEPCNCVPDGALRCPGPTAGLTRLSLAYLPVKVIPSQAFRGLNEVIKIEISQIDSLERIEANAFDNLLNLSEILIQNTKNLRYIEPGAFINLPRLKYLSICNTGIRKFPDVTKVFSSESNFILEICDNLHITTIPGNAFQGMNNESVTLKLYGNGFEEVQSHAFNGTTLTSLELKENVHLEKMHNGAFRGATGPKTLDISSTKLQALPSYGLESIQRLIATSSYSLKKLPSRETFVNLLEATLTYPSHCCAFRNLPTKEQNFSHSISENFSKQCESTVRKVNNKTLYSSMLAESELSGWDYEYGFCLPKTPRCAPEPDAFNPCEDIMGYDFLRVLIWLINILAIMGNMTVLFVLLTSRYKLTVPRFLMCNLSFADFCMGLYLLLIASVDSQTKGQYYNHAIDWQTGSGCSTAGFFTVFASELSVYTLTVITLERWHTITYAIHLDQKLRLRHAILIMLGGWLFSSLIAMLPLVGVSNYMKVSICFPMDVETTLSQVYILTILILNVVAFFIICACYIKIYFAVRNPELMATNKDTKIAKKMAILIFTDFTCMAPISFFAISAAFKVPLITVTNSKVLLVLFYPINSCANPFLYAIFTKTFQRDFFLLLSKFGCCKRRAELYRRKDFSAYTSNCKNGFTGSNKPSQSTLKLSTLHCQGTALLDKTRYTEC

As for `CSc1nc(-c2cccc(F)c2)c2c(N)c(C(=O)NC(C)(C)C)sc2n1` [Compound 18, N-tert-butyl-5-amino-4-(3-fluorophenyl)-2-(methylthio)thieno[2,3-d]pyrimidine-6-carboxamide], the “% Max. Resp. @ LHCGR in μM” value (% of maximum response of LHCGR to LH (1000 ng/ml)) is given as 51.1 ± 5.2%.

For “LH: luteinizing hormone, native ligand of LHCGR (human LH)”, the EC50 (cAMP, read-out: EC50 concentration of native ligand LH) was found to be 340 pM.

These data come from patent publication US20090203716A1, “Pyrimidine low molecular weight ligands for modulating hormone receptors” (The Government of the United States of America as …, priority 2006, published 2009).
